Laboratory results reported in ChEMBL document CHEMBL1123414, “Neurochemistry of aging. 1. Toxins for an animal model of Alzheimer's disease” (J Med Chem, 1986).

The chains behind the UniProt entries cited, without tags or fusion partners.
UniProt P08483, whole entry: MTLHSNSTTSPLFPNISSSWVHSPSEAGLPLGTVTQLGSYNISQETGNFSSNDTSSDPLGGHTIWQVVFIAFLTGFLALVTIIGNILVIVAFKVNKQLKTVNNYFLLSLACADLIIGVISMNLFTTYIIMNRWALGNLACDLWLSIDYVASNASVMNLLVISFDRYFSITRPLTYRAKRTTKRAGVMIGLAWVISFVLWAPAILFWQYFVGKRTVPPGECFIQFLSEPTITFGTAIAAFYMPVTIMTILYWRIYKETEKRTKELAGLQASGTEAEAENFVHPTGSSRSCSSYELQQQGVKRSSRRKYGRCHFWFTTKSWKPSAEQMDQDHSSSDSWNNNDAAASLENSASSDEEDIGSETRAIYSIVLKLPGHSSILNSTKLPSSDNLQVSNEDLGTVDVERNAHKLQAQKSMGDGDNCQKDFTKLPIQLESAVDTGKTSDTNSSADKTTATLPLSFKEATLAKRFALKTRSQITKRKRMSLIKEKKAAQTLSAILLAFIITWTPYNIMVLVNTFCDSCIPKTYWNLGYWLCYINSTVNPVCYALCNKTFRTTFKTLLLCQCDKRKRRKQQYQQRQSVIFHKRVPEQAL
UniProt Q8BGY9, whole entry: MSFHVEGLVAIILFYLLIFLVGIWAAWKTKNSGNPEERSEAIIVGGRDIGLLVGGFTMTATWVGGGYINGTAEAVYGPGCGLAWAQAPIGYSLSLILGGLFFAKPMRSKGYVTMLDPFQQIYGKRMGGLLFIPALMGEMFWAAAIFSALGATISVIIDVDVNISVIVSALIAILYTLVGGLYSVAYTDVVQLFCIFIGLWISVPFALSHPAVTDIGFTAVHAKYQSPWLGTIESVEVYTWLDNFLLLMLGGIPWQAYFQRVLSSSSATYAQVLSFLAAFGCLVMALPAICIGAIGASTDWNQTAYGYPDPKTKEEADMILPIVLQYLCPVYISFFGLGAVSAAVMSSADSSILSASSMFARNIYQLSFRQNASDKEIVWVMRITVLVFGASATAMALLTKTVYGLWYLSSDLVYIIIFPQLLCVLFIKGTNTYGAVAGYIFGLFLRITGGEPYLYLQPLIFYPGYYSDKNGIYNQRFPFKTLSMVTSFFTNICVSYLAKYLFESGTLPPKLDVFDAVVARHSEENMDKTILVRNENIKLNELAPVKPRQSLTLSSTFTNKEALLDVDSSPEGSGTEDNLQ

What was measured:
[1] = target: Muscarinic acetylcholine receptor M3 (Rattus norvegicus, UniProt P08483); assay: Compound was tested in vitro for its ability to displace [3H]QNB from brain Muscarinic acetylcholine receptor by 50 %
[2] = target: High affinity choline transporter 1 (Mus musculus, UniProt Q8BGY9); assay: In vitro ability to inhibit the transport of [3H]choline in to high affinity choline transport system HAChT

Compound	IC50 [1]	IC50 [2]
OCC[N+]1(C2CC2)CC1	6.25 µM	–
CC(C)[N+]1(CCO)CC1	–	2600 nM
